Earlier results, collected in article PMC3138877 (Cancer research, 2011).

System: ALK fusion positive NSCLC
Details: phase I study, patients with ALK fusion positive NSCLC; cited from earlier work

For `C[C@@H](Oc1cc(-c2cnn(C3CCNCC3)c2)cnc1N)c1c(Cl)ccc(F)c1Cl` [PF-1066, crizotinib, reference compound], the radiographic response rate is listed as 57%.
